Among the data in article PMC7024217, “Study on Structure Activity Relationship of Natural Flavonoids against Thrombin by Molecular Docking Virtual Screening Combined with Activity Evaluation In Vitro” (Molecules, 2020) are IC50 values, retold here.

This test concerns the target T1, bovine thrombin (Bos taurus, UniProt P00735).
T1 construct: bovine thrombin and argatroban were purchased from Sigma-Aldrich; purchased Sigma-Aldrich (St. Louis, MO, USA)
The experiment in a line: Thrombin inhibitory activity assay (chromogenic substrate S-2238).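 Note: microplate absorbance read-out, thrombin preincubated with test compound 5 min at 37 °C in PBS pH 7.2-7.4, inhibition relative to blank without compound after subtracting compound-only background.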 Type of test: biochemical.

[1] abbreviates: IC50, Table 1, anti-thrombin, substrate S-2238 4 mg/mL.
The mark [2] stands for this setting: IC50 ±SD, Table 2, anti-thrombin.

Take `COc1c(O)cc2oc(-c3ccc(O)c(O)c3)cc(=O)c2c1O` [6-Methoxyluteolin]: under setting [1], the 50% inhibitory concentration (IC50) (commonly the concentration that inhibits the measured activity by half) is above 500 µM.
`O=c1cc(-c2ccc(O)cc2)oc2cc(O)cc(O)c12` [Apigenin]: the IC50 is, setting by setting: under setting [1], 96.2 ± 10 µM; under setting [2], 96.2 ± 10 µM.
`O=c1cc(-c2ccccc2)oc2cc(O)cc(O)c12` [Chrysin] displayed a 50% inhibitory concentration (IC50) under setting [1] above 500 µM.
Turning to `COc1cc(-c2oc3cc(O)cc(O)c3c(=O)c2O)ccc1O` [Isorhamnetin], the concentration for half-maximal inhibition (IC50) by setting is: under setting [1], 72.2 ± 4.8 µM; (IC50, thrombin inhibition, substrate 4 mg/mL) below 100 µM; under setting [2], 72.2 ± 4.8 µM.
